{"source": "patent US20170283685A1", "about": "(priority 2014, published 2017)", "key": {"[1]": {"test_system": "Desulfovibrio alaskensis G20", "settings": "for IC50: read-out: IC50 of inhibitor against growth of Desulfovibrio alaskensis G20 with SO4^2−"}, "[2]": {"test_system": "Azospira suillum PS ((per)chlorate reducing cells)", "settings": "for IC50: read-out: IC50 of inhibitor against growth of Azospira suillum PS with ClO4^−"}, "[3]": {"test_system": "Azospira suillum PS ((per)chlorate reducing cells)", "assay": "organism not typed", "settings": "read-out: IC50 of inhibitor against growth of Azospira suillum PS with ClO4^−"}, "[4]": {"test_system": "Desulfovibrio alaskensis G20", "assay": "microbe, parasite or virus in culture", "settings": "Oleidesulfovibrio alaskensis, G20, 48 h, read-out: IC50 of inhibitor against growth of Desulfovibrio alaskensis G20 with SO4^2−"}, "[5]": {"test_system": "Azospira suillum PS (nitrate reducing cells)", "assay": "organism not typed", "settings": "read-out: IC50 of inhibitor against growth of Azospira suillum PS with NO3^−"}, "[6]": {"test_system": "Azospira suillum PS (nitrate reducing cells)", "settings": "for IC50: read-out: IC50 of inhibitor against growth of Azospira suillum PS with NO3^−"}, "[7]": {"settings": "sulfate as electron acceptor, OD 600 after 48 hours, 30° C."}}, "note": "Structures can show the parent of a compound that is named as a salt. Where two headings read alike, the source gives them in different places.", "data": [{"compound": "[O-][I+3]([O-])([O-])O", "note": "[IO4^−, periodate]", "values": [{"measurement": "IC50 of inhibitor against growth of Desulfovibrio alaskensis G20 with SO4^2−", "setting": "[1]; [7]", "result": "sub-millimolar"}, {"measurement": "Inhibition of (per)chlorate respiration (% maximum growth at 48 hours)", "setting": "[2]; lower concentrations, perchlorate as electron acceptor, FIG. 3A", "result": "potent inhibitors"}, {"measurement": "IC50", "setting": "[3]", "result": 2.97, "unit": "mM"}, {"measurement": "IC50", "setting": "[4]", "result": "< 1", "unit": "mM"}, {"measurement": "IC50", "setting": "[5]", "result": 68.3, "unit": "mM"}, {"measurement": "Impact on nitrate respiration (% maximum growth at 48 hours)", "setting": "[6]; same low concentrations, nitrate as electron acceptor, FIG. 3B", "result": "minimal impact"}]}, {"compound": "O=[N+]([O-])O", "note": "[NO3^−, nitrate]", "values": [{"measurement": "IC50", "setting": "[1]", "result": 70.4, "unit": "mM"}]}, {"compound": "[O-][Cl+2]([O-])O", "note": "[ClO3^−, chlorate]", "values": [{"measurement": "IC50", "setting": "[4]", "result": 10.4, "unit": "mM"}]}, {"compound": "chlorite [ClO2^−]", "values": [{"measurement": "IC50", "setting": "[1]; [7]", "result": "< 1", "unit": "mM"}, {"measurement": "IC50", "setting": "[2]; perchlorate as electron acceptor", "result": 1.32, "unit": "mM"}, {"measurement": "IC50", "setting": "[6]; nitrate as electron acceptor", "result": 1.14, "unit": "mM"}]}, {"compound": "O=NO", "note": "[NO2^−, nitrite]", "values": [{"measurement": "IC50", "setting": "[1]", "result": 0.925, "unit": "mM"}, {"measurement": "IC50", "setting": "[2]", "result": 3.86, "unit": "mM"}, {"measurement": "IC50", "setting": "[6]", "result": 1.14, "unit": "mM"}]}, {"compound": "O=S(=O)(O)O", "note": "[SO4^2−, sulfate]", "values": [{"measurement": "IC50", "setting": "[2]", "result": 85.9, "unit": "mM"}, {"measurement": "IC50", "setting": "[6]", "result": 96.4, "unit": "mM"}]}, {"compound": "[O-][Cl+3]([O-])([O-])O", "note": "[ClO4^−, perchlorate]", "values": [{"measurement": "IC50", "setting": "[4]", "result": 22.2, "unit": "mM"}]}]}
